# scFv variants of Ab-91 (heavy chain) against a SARS-CoV-2 spike peptide

Source: Engelhart et al. 2022 (doi:10.1038/s41597-022-01779-4), MIT Lincoln Laboratory and A-Alpha Bio; data file from the FLAb repository.

The target is the same throughout: PDVDLGDISGINAS, from the HR2 region of SARS-CoV-2 spike.

Parent: Ab-91, a human scFv built as VL, the linker GGGGSGGGGSGGGGS, VH. Only the CDRs of the heavy chain vary.
VL: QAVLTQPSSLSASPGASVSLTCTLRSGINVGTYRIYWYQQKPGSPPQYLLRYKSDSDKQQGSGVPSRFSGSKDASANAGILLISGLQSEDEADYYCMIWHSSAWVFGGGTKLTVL
VH: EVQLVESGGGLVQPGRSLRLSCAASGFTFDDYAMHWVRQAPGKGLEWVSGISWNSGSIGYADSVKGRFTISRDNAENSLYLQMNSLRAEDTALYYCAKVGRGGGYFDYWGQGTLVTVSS

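The starting antibody came from a phage panning campaign against this peptide. Library AAYL51 holds single substitutions and randomly drawn double and triple substitutions in the CDRs. In AlphaSeq, yeast of one mating type display the scFv and yeast of the other type display the target. Binding brings cells together so that they mate, and sequencing counts the barcode pairs among the diploids. Read counts were normalised to the haploid input and turned into Kd by a linear fit to BCL2-family pairs of known affinity, for each replicate. The assay was run in three technical replicates.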

The parent's heavy chain CDRs are GFTFDDYAMH, GISWNSGSIGYADSVK, VGRGGGYFDY; each variant's own CDRs replace them letter for letter. Every variant below is changed at I58 of the VH (sequential numbering). Kd is apparent (estimated from mating counts) and averaged on the log scale over replicates with a signal. Smaller is tighter. A pair that was not seen in any replicate is written "nd"; this usually means weak binding, but a binder can also be missed. As a blank, each scFv also met three strains without target: over library AAYL51, 21% of these pairings were detected, typically at 34 µM and seldom below 1.8 µM.

Variant GFTFKDYAMH | GISVNSGSRGYADSVK | VGRGGGYFDY gave 21 nM (3 of 3 replicates). Variant GFTFDDYAKH | GISWNSGSPGYADSVH | VGRGGGYFDY gave nd (0 of 3 replicates). Variant GFTFDDYAMH | GISWVSGSTGYARSVK | VGRGGGYFDY gave 2.4 µM (3 of 3 replicates). For GFAFDDYAMH | GISWNSGSGGYAVSVK | VGRGGGYFDY, the assay gave nd (0 of 3 replicates). Variant GFTFDDYAMT | GISWNSGSCGYADSVT | VGRGGGYFDY gave 130 µM (3 of 3 replicates). With GFTFDDYAMH | GISWNSGSKGYADSVK | VGRGLGYFDY the result was nd (0 of 3 replicates).

With GFTFDDYAMH | GISWNSGSNMYGDSVK | VGRGGGYFDY the result was 340 µM (2 of 3 replicates). For GFTFDDYAMH | GISWNSKSAGYADWVK | VGRGGGYFDY, the assay gave 6.4 nM (3 of 3 replicates). Variant GFTFDDYAMH | GISWNSGSFCYADSVK | VGRGGGYFIY gave nd (0 of 3 replicates). With GFTFDDYAMH | GISWNSGSRGYADSVK | VVRGGGYFDY the result was 670 nM (3 of 3 replicates). Variant GFTFKDYAMH | GISWNSGSEGYADSVK | VGRCGGYFDY showed 36 nM (3 of 3 replicates). Variant GFTFDDYAMH | GISWNSGSHGYADSVK | VGRGMGYSDY showed 250 nM (3 of 3 replicates).

With GCTFDDYAMH | GISWNSGSYGYADSVK | VGRGIGYFDY the result was nd (0 of 3 replicates). Variant GFTFDDYAMH | NISWNSGSNGYADSVK | VGRGRGYFDY showed 180 µM (2 of 3 replicates). For GRTFDDYAMH | GISWNPGSDGYADSVK | VGRGGGYFDY, the assay gave 6.4 mM (1 of 3 replicates). For GFTFDDYAMH | GISWNSGSNGYAASVE | VGRGGGYFDY, the assay gave nd (0 of 3 replicates). With GFTFDDYAMH | GISWNSGSHGYADSFK | VGRGGGYFSY the result was nd (0 of 3 replicates). Variant GFTFDDYAMH | GISVLSGSAGYADSVK | VGRGGGYFDY showed 1.8 µM (2 of 3 replicates).

For GFTFDDYAMH | GISWNSGSWGYATSVK | VGRGGGYFDY, the assay gave 10 µM (1 of 3 replicates). Variant DFTFDDYAMH | GIQWNSGSYGYADSVK | VGRGGGYFDY showed 140 µM (3 of 3 replicates). Variant GFTFDDYAMG | GISWNSGSLGYADSVK | VGRYGGYFDY showed nd (0 of 3 replicates). Variant GFTFDDYAMH | GISGNSGSMGYADSVK | VGRGGGYFDY gave nd (0 of 3 replicates). Variant GFTFDDYAMH | GISWNSGSVGYADSVK | VGRGGGDFDA gave 18 nM (3 of 3 replicates). Variant GFTFDDYAMH | GISWNSGSAGYADSVK | VGRGGAYPDY gave 4.8 nM (3 of 3 replicates).

For GFTFDDYAMH | GISWNSGSCGYAYSVK | VTRGGGYFDY, the assay gave 37 µM (1 of 3 replicates). Variant GYTFDDYAMH | GISWNSWSVGYADSVK | VGRGGGYFDY showed 72 nM (3 of 3 replicates). Variant GFTFDDYVMH | GISWNSGSHGYADSVK | VGRGGGPFDY showed 920 nM (3 of 3 replicates). With GFTFDDYAMH | GISCNFGSRGYADSVK | VGRGGGYFDY the result was nd (0 of 3 replicates). With GFTFDDYAMH | GISWNSGSCGYAKSVK | VGRGGGYFDY the result was 430 µM (2 of 3 replicates). For GFTFDDYAMH | GISWNSGSPGYADSVK | VGRGGGWFDY, the assay gave 58 µM (1 of 3 replicates).

With GFTFDDYAMH | GISWNAGSDGYCDSVK | VGRGGGYFDY the result was 18 nM (3 of 3 replicates). For GQTFDDYAMH | GISWNSGSLGYADSVE | VGRGGGYFDY, the assay gave 65 nM (3 of 3 replicates). Variant GFTFDDYRMH | GISWNSGSCGYADSVK | VGRGGGYFDY showed 72 nM (3 of 3 replicates). Variant GFTFRDYAMH | GISWNSGSGGYADSVK | VGRGGGYFDY gave 4.9 µM (2 of 3 replicates). Variant GFTFDDYAMH | YISWNSGSKGYADSGK | VGRGGGYFDY showed 44 µM (2 of 3 replicates). For GFTFDDYAMH | GISWNSWSGGYADSVK | VGRGGFYFDY, the assay gave 23 µM (1 of 3 replicates).

Variant GFTFADYAMH | GISWNSGSNGYADSGK | VGRGGGYFDY gave 3.1 µM (2 of 3 replicates). For GFTFDDYAMY | GISNNSGSSGYADSVK | VGRGGGYFDY, the assay gave 91 µM (1 of 3 replicates). Variant GFTQDDYAMH | GISWNSGEMGYADSVK | VGRGGGYFDY gave nd (0 of 3 replicates). Variant GFTFDDYAMH | GISWNSGCNGYADSVK | VGRGGGYCDY showed 770 nM (1 of 3 replicates). For GHTFDDYAMH | GISWNSGSKGYPDSVK | VGRGGGYFDY, the assay gave nd (0 of 3 replicates). With GFTFDDPAMH | GISWNSGSDAYADSVK | VGRGGGYFDY the result was 10 µM (3 of 3 replicates).

For GFTFDDLAMH | GISWNRGSQGYADSVK | VGRGGGYFDY, the assay gave 19 µM (1 of 3 replicates). For GFWFDDYAMH | GISWNSGSMGYADSVP | VGRGGGYFDY, the assay gave nd (0 of 3 replicates). Variant GFTFDDYAMH | GISNNSGSLGYADSVK | SGRGGGYFDY showed nd (0 of 3 replicates). With GFTADDYAMH | GISGNSGSPGYADSVK | VGRGGGYFDY the result was nd (0 of 3 replicates). With GFTFDDYAMH | GISWNSGSCYYADSVK | VGREGGYFDY the result was nd (0 of 3 replicates).

The first 7 variants above that were never detected:

| CDR-H1 | CDR-H2 | CDR-H3 | Kd | seen in |
|---|---|---|---|---|
| GFTFDDYAKH | GISWNSGSPGYADSVH | VGRGGGYFDY | nd | 0/3 |
| GFAFDDYAMH | GISWNSGSGGYAVSVK | VGRGGGYFDY | nd | 0/3 |
| GFTFDDYAMH | GISWNSGSKGYADSVK | VGRGLGYFDY | nd | 0/3 |
| GFTFDDYAMH | GISWNSGSFCYADSVK | VGRGGGYFIY | nd | 0/3 |
| GCTFDDYAMH | GISWNSGSYGYADSVK | VGRGIGYFDY | nd | 0/3 |
| GFTFDDYAMH | GISWNSGSNGYAASVE | VGRGGGYFDY | nd | 0/3 |
| GFTFDDYAMH | GISWNSGSHGYADSFK | VGRGGGYFSY | nd | 0/3 |